OPERA 2.9 data: fraction unbound values

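OPERA's authors assembled the values from existing databases and did not measure them anew. One number stands for a compound and property, with no spread given. Conditions of the individual experiments are not part of the data. Where a salt, mixture or single isomer is drawn, the source does not say that exactly this form was tested. Some entries may be limits or estimates that an upstream database listed as plain numbers.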

The unbound fraction in human plasma runs from 0 (all bound) to 1 (all free).

SMILES	fu
Cc1nc(NS(=O)(=O)c2ccc(N)cc2)oc1C	0.3
NC(=O)c1cc[n+](CC2=C(C(=O)[O-])N3C(=O)[C@@H](NC(=O)C(c4ccccc4)S(=O)(=O)O)[C@H]3SC2)cc1 (some centres not stated)	0.77
O=P(O)(O)OC(Cn1cncn1)(Cn1cncn1)c1ccc(F)cc1F	0.04167
C=C(C)C(=O)OCCC(F)(F)C(F)(F)C(F)(F)C(F)(F)C(F)(F)C(F)(F)F	0.02653
C#C[C@]1(O)CC[C@H]2[C@@H]3CCC4=CC(=O)CC[C@@H]4[C@H]3CC[C@@]21C	0.1258
CO[C@@]1(NC(=O)C2SC(=C(C(N)=O)C(=O)O)S2)C(=O)N2C(C(=O)O)=C(CSc3nnnn3C)CS[C@@H]21 (stereo partly specified)	0.155
C[n+]1ccccc1/C=N/O.[Cl-]	0.95
CC(C)(Oc1ccc(C2CC2(Cl)Cl)cc1)C(=O)O (configuration not stated)	0.05
CC1CCN(CCCC(=O)c2ccc(F)cc2)CC1	0.5
Cc1nc[nH]c1CC1CCc2c(C)c3ccccc3n2C1=O (configuration not stated)	0.02224
CO	0.9712
COC(=O)CCC(=O)OC	0.9999
O=C(O)c1ccc(O)cc1	0.6485
O=C(NCCc1ccccc1Cl)c1cc(-n2ncc(=O)[nH]c2=O)ccc1Cl	0.028
C[C@]12C=CC(=O)C=C1C(Cl)=C[C@@H]1[C@@H]2[C@@H](O)C[C@@]2(C)[C@H]1CC[C@]2(O)C(=O)CO	0.2
COc1cc(/C=C/C(=O)O)ccc1O	0.2688
Sc1nc2ccccc2s1	0.02813
Oc1ccc2c(c1)-c1ccccc1C2	0.02488
Oc1ccc(Cc2ccccc2O)cc1	0.0426
CN1CCC(=C2c3ccccc3CCc3sccc32)CC1	0.09
Cc1cccc(O)c1	0.363
CCC(=O)OC(OP(=O)(CCCCc1ccccc1)CC(=O)N1C[C@H](C2CCCCC2)C[C@H]1C(=O)O)C(C)C (stereo partly specified)	0.05
CN1CCN(CC1)c1ccccc1/C=C1SCCN(C1=O)c1cc(Cl)c(Cl)cc1	0.0329
O=C(OCC(O)CO)c1ccccc1Nc1ccnc2c(C(F)(F)F)cccc12 (configuration not stated)	0.15
C=C1C[C@]23C[C@@]1(O)CC[C@H]2[C@@]12C=C[C@H](O)[C@@](C)(C(=O)O1)[C@H]2[C@@H]3C(=O)O	0.24
CS(=O)(=O)O.Cc1nccn1-c1ccc(Sc2cccc(C3(C(N)=O)CCOCC3)c2)cc1	0.06671
CCCCCOc1ccc(-c2cc(-c3ccc(C(=O)N[C@H]4C[C@@H](O)[C@@H](O)NC(=O)[C@@H]5[C@@H](O)[C@@H](C)CN5C(=O)[C@H]([C@H](O)CC(N)=O)NC(=O)C([C@H](O)[C@@H](O)c5ccc(O)c(OS(=O)(=O)O)c5)NC(=O)[C@@H]5C[C@@H](O)CN5C(=O)C([C@@H](C)O)NC4=O)cc3)no2)cc1 (stereo partly specified)	0.003312
CC(C)=CCC1C(=O)N(c2ccccc2)N(c2ccccc2)C1=O	0.05
CN/C(/NCc1ccccc1)=NC	0.9
Cc1ccnc(NS(=O)(=O)c2ccc(N)cc2)n1	0.15
CCN(CCO)CCCC(C)Nc1ccnc2cc(Cl)ccc12 (configuration not stated)	0.5533
COc1cc2c(cc1OC)[C@@H](Cc1cc(OC)c(OC)c(OC)c1)[N+](C)(CCCOC(=O)CC/C=C/CCC(=O)OCCC[N+]1(C)CCc3cc(OC)c(OC)cc3[C@H]1Cc1cc(OC)c(OC)c(OC)c1)CC2 (stereo partly specified)	0.7
Cc1c(N(C)C)c(=O)n(-c2ccccc2)n1C	0.925
CC[C@H]1NC(=O)[C@@H](NC(=O)c2ncccc2O)[C@@H](C)OC(=O)[C@H](c2ccccc2)NC(=O)[C@@H]2CC(=O)[C@H](CS[C@@H]3CN4CCC3CC4)CN2C(=O)[C@H](Cc2ccc(N(C)C)cc2)N(C)C(=O)[C@@H]2CCCN2C1=O	0.3375
Cc1ccc(-c2cc(C(F)(F)F)nn2-c2ccc(S(N)(=O)=O)cc2)cc1	0.01783
Cc1ccc(cc1)/C(=CCN1CCCC1)/c1cccc[n]1	0.254
C1CCC(C(CC2CCCCN2)C2CCCCC2)CC1 (configuration not stated)	0.0395
CC(C)CN(C[C@@H](OP(=O)(O)O)[C@H](Cc1ccccc1)NC(=O)O[C@H]1CCOC1)S(=O)(=O)c1ccc(N)cc1	0.1
CN[C@@H]1C[C@H]2O[C@@](C)([C@@H]1OC)n1c3ccccc3c3c4c(c5c6ccccc6n2c5c31)C(=O)N[C@@H]4O	0.0036
CCOC(=O)C1=C(C)NC(C)=C(C(=O)OCC)C1c1ccccc1/C=C/C(=O)OC(C)(C)C	0.05
CCC1OC=CC(=O)C=1O	0.606
Cc1onc(-c2ccccc2)c1C(=O)N[C@@H]1C(=O)N2[C@@H]1SC(C)(C)[C@@H]2C(=O)O	0.07333
CCCCCC	0.1931
CC(=O)OCC(=O)[C@@]1(O)CC[C@H]2[C@@H]3CCC4=CC(=O)CC[C@]4(C)[C@H]3C(=O)C[C@@]21C	0.05
Nc1nc2nc[nH]c2c(=S)[nH]1	0.804
CCOC(C)(C)C	0.7626
CNCCCCOc1ccccc1Cc1ccccc1	0.05
CC[C@]1(O)C[C@H]2C[N@](CCc3c([nH]c4ccccc34)[C@@](C(=O)OC)(c3cc4c(cc3OC)N(C)[C@H]3[C@@](O)(C(N)=O)[C@H](O)[C@]5(CC)C=CCN6CC[C@]43[C@@H]65)C2)C1	0.3
Cc1c(N(C)CS(=O)(=O)[O-])c(=O)n(-c2ccccc2)n1C.[Na+]	0.4
Nc1ccc(C(=O)O)c(O)c1	0.38
CC(C)(C)N1CCC(c2ccccc2)(c2ccccc2)CC1	0.04
CN(C)CCN(C)n1cc(-c2ccccc2)c2ccccc21	0.04
CCOc1ccc2nc(S(N)(=O)=O)sc2c1	0.11
CC/C(=C(/CC)c1ccc(O)cc1)c1ccc(O)cc1	0.004675
CC(C)OC(=O)OCOP(=O)(CO[C@H](C)Cn1cnc2c(N)ncnc21)OCOC(=O)OC(C)C	0.93

Excerpt, the final 9 entries:

{"smiles": "CNCCCCOc1ccccc1Cc1ccccc1", "fu": "0.05"}
{"smiles": "CC[C@]1(O)C[C@H]2C[N@](CCc3c([nH]c4ccccc34)[C@@](C(=O)OC)(c3cc4c(cc3OC)N(C)[C@H]3[C@@](O)(C(N)=O)[C@H](O)[C@]5(CC)C=CCN6CC[C@]43[C@@H]65)C2)C1", "fu": "0.3"}
{"smiles": "Cc1c(N(C)CS(=O)(=O)[O-])c(=O)n(-c2ccccc2)n1C.[Na+]", "fu": "0.4"}
{"smiles": "Nc1ccc(C(=O)O)c(O)c1", "fu": "0.38"}
{"smiles": "CC(C)(C)N1CCC(c2ccccc2)(c2ccccc2)CC1", "fu": "0.04"}
{"smiles": "CN(C)CCN(C)n1cc(-c2ccccc2)c2ccccc21", "fu": "0.04"}
{"smiles": "CCOc1ccc2nc(S(N)(=O)=O)sc2c1", "fu": "0.11"}
{"smiles": "CC/C(=C(/CC)c1ccc(O)cc1)c1ccc(O)cc1", "fu": "0.004675"}
{"smiles": "CC(C)OC(=O)OCOP(=O)(CO[C@H](C)Cn1cnc2c(N)ncnc21)OCOC(=O)OC(C)C", "fu": "0.93"}

Data: OPERA 2.9 data sets, kmansouri/OPERA on GitHub.